According to patent US5080884A, “Hydrocarbylphenyl diaminodithiol radionuclide complexes and their use in imaging” (Medi-Physics, Inc., priority 1991, dated 1992):

Legend:
[1] = Electrophoresis of Tc-99m complex (NaH2PO4, pH 4.5); format: physicochemical
[2] = Biological distribution of Tc-99m complexes in rats (pentobarbital anesthesia); format: in vivo, Female Sprague-Dawley rats; settings: average of 2 rats; for Blood, % Injected Dose/Gram Tissue / Brain, % Injected Dose/Gram Tissue / Heart, % Injected Dose/Gram Tissue: pentobarbital anesthesia; for Brain:Blood / Heart:Blood: ratio
Experimental: Distribution of the Tc-99m labeled compounds was evaluated in rats. Female Sprague-Dawley rats weighing 140 to 220 g (average 170 g) were anesthetized with sodium pentobarbital and were injected in a tail vein with from 0.05 to 10 mCi of the Tc-99m labeled complex in a volume of 0.2 to 0.5 ml. At least two rats were injected for each time point.
The animals were sacrificed at 5 and 30 minutes after injection and selected organs were removed; the tails were discharged to avoid interference from the injection site. The radioactivity in each organ was measured at a standard geometry with a […] sodium iodide scintillation detector adjusted for the 140 KeV emission of Tc-99m. The organs were also weighed to one hundredth of a gram and the activity was calculated as a percent of administered dose per gram.

[3] = 1-octanol/0.1 M phosphate buffer pH 7.4
[4] = 0.05 M NaH2PO4, pH 4.5, 300 volts, 30 min
[5] = 5 min after i.v. (tail vein) injection
[6] = 30 min after i.v. (tail vein) injection
[7] = 0.05 M NaH2PO4, pH 4.5, 300 volts, 45 min

| Substance | Electrophoresis [1, 4] | Blood, % Injected Dose/Gram Tissue [2, 5] | Brain, % Injected Dose/Gram Tissue [2, 5] | Heart, % Injected Dose/Gram Tissue [2, 5] | Blood, % Injected Dose/Gram Tissue [2, 6] | Brain, % Injected Dose/Gram Tissue [2, 6] | Heart, % Injected Dose/Gram Tissue [2, 6] | Brain:Blood ([2]; 5 min after i.v. injection) | Heart:Blood ([2]; 5 min after i.v. injection) | Brain:Blood ([2]; 30 min after i.v. injection) | Heart:Blood ([2]; 30 min after i.v. injection) | Electrophoresis ([1]; 0.5 M NaH2PO4, pH 4.5, 300 volts, 45 min) | Electrophoresis [1, 7] | Partition coefficient [3] |
| --- | --- | --- | --- | --- | --- | --- | --- | --- | --- | --- | --- | --- | --- | --- |
| Tc-99m complex of 1-(2-Allylthio-2-methylpropylamino]-2-(2-mercapto-2-methylpropylamino) benzene [Example 15] | neutral | 0.27 % Injected Dose/Gram Tissue | 0.99 % Injected Dose/Gram Tissue | 4.37 % Injected Dose/Gram Tissue | 0.13 % Injected Dose/Gram Tissue | 0.75 % Injected Dose/Gram Tissue | 2.25 % Injected Dose/Gram Tissue | 3.61 | 15.97 | 5.63 | 16.77 |  |  |  |
| Tc-99m complex of 2-(2-butylthio)2-methylpropylamino)-1-(2-mercapto-2-methylpropylamino)benzene [Example 43] | neutral | 0.81 % Injected Dose/Gram Tissue | 0.41 % Injected Dose/Gram Tissue | 2.02 % Injected Dose/Gram Tissue | 0.35 % Injected Dose/Gram Tissue | 0.43 % Injected Dose/Gram Tissue | 0.96 % Injected Dose/Gram Tissue | 0.51 | 2.50 | 1.24 | 2.77 |  |  |  |
| Tc-99m complex of 2-(2-mercapto-2-methylpropylamino)-1-[2-(4-pentenylthio)-2-methylpropylamino]benzene [Example 7] |  | 0.20 % Injected Dose/Gram Tissue | 0.44 % Injected Dose/Gram Tissue | 2.64 % Injected Dose/Gram Tissue | 0.12 % Injected Dose/Gram Tissue | 0.48 % Injected Dose/Gram Tissue | 1.33 % Injected Dose/Gram Tissue | 2.17 | 13.00 | 4.11 | 11.36 | neutral |  |  |
| Tc-99m complex of 1-[2-(3-butenylthio)-2-methylpropylamino]-2-(2-mercapto-2-methylpropylamino)benzene [Example 19] |  | 0.36 % Injected Dose/Gram Tissue | 0.80 % Injected Dose/Gram Tissue | 3.40 % Injected Dose/Gram Tissue | 0.18 % Injected Dose/Gram Tissue | 0.69 % Injected Dose/Gram Tissue | 1.52 % Injected Dose/Gram Tissue | 2.20 |  | 3.76 | 8.30 |  |  |  |
| Tc-99m complex of 1-[2-(2-methyl-2-propenylthio)-2-methylpropylamino]-2-(2-mercapto-2-methylpropylamino)benzene [Example 45] | neutral | 0.30 % Injected Dose/Gram Tissue | 0.60 % Injected Dose/Gram Tissue | 3.40 % Injected Dose/Gram Tissue | 0.19 % Injected Dose/Gram Tissue | 0.55 % Injected Dose/Gram Tissue | 2.24 % Injected Dose/Gram Tissue | 2.01 | 11.40 | 2.90 | 11.81 |  |  |  |
| Tc-99m complex of 2-(2-Mercapto-2-methylpropylamino)-1-[2-(1-methylethylthio)-2-methylpropylamino]benzene [Example 38] |  | 0.34 % Injected Dose/Gram Tissue | 0.73 % Injected Dose/Gram Tissue | 2.48 % Injected Dose/Gram Tissue | 0.27 % Injected Dose/Gram Tissue | 0.67 % Injected Dose/Gram Tissue | 1.04 % Injected Dose/Gram Tissue | 2.13 | 7.22 | 2.44 | 3.78 |  |  |  |
| Tc-99m complex of 1-[2-cyclopropylmethylthio-2-methylpropylamino)-2-(2-mercapto-2-methyl-propylamino) benzene [Example 57] |  | 0.20 % Injected Dose/Gram Tissue | 0.54 % Injected Dose/Gram Tissue | 2.12 % Injected Dose/Gram Tissue | 0.11 % Injected Dose/Gram Tissue | 0.47 % Injected Dose/Gram Tissue | 0.86 % Injected Dose/Gram Tissue | 2.63 | 10.34 | 4.18 | 7.68 |  | neutral |  |
| Tc-99m complex of 2-(2-mercapto-2-methylpropylamino)-1-[2-propylthio-2-methylpropylamino]-benzene [Example 23] |  | 0.35 % Injected Dose/Gram Tissue | 0.75 % Injected Dose/Gram Tissue | 2.43 % Injected Dose/Gram Tissue | 0.23 % Injected Dose/Gram Tissue | 0.69 % Injected Dose/Gram Tissue | 1.01 % Injected Dose/Gram Tissue | 2.11 | 6.86 | 3.06 | 4.44 |  |  | 33 |
| Tc-99m complex of 2-(2-mercapto-2-methylpropylamino)-1-[2-(2-propynylthio)-2-methylpropylamino]benzene [Example 27] | neutral | 0.47 % Injected Dose/Gram Tissue | 0.82 % Injected Dose/Gram Tissue | 5.26 % Injected Dose/Gram Tissue | 0.19 % Injected Dose/Gram Tissue | 0.67 % Injected Dose/Gram Tissue | 3.28 % Injected Dose/Gram Tissue | 1.75 | 11.28 | 3.54 | 17.34 |  |  |  |
| Tc-99m complex of 2-(2-mercapto-2-methylpropylamino)-1-[2-(1-methylpropylthio)-2-methylpropylamino)benzene [Example 46] |  | 0.23 % Injected Dose/Gram Tissue | 0.64 % Injected Dose/Gram Tissue | 2.96 % Injected Dose/Gram Tissue | 0.15 % Injected Dose/Gram Tissue | 0.57 % Injected Dose/Gram Tissue | 1.28 % Injected Dose/Gram Tissue | 2.81 | 12.94 | 3.71 | 8.35 |  | neutral |  |
| Tc-99m complex of 1-[2-(trans-2-butenylthio)-2-methylpropylamino]-2-(2-mercapto-2-methylpropylamino) benzene [Example 11] |  | 0.26 % Injected Dose/Gram Tissue | 0.50 % Injected Dose/Gram Tissue | 2.40 % Injected Dose/Gram Tissue | 0.19 % Injected Dose/Gram Tissue | 0.49 % Injected Dose/Gram Tissue | 1.13 % Injected Dose/Gram Tissue | 1.94 | 9.29 | 2.58 | 6.01 |  | neutral |  |
| Tc-99m complex of 1-(2-vinylthio-2-methylpropylamino)-2-(2-mercapto-2-methylpropylamino)benzene [Example 48] | neutral | 0.61 % Injected Dose/Gram Tissue | 0.56 % Injected Dose/Gram Tissue | 3.51 % Injected Dose/Gram Tissue | 0.30 % Injected Dose/Gram Tissue | 0.57 % Injected Dose/Gram Tissue | 3.05 % Injected Dose/Gram Tissue | 0.92 | 5.75 | 1.92 | 10.32 |  |  |  |
| Tc-99m complex of 1-[2-methylthio-2-methylpropylamino]-2-(2-mercapto-2-methylpropylamino)benzene [Example 44] | neutral | 0.12 % Injected Dose/Gram Tissue | 0.78 % Injected Dose/Gram Tissue | 1.48 % Injected Dose/Gram Tissue | 0.07 % Injected Dose/Gram Tissue | 0.44 % Injected Dose/Gram Tissue | 0.50 % Injected Dose/Gram Tissue | 6.46 | 12.16 | 6.19 | 7.12 |  |  |  |
